According to paper PMC10515483, “Structure–Reactivity Studies of 2-Sulfonylpyrimidines Allow Selective Protein Arylation” (Bioconjugate Chemistry, 2023):

Assay: GSH arylation rate constants (NMR; UV-vis for fast warheads)
Assay type: physicochemical
Excerpt: We employed nuclear magnetic resonance (NMR) and UV–vis to quantify the reactivity of our 2-SP derivatives and other representative electrophiles (Figure 2) against cysteine. NMR allowed straightforward determination of reaction rate constants through dual monitoring of the consumption of the warhead and formation of the product by integration of their respective NMR signals (Figures S1–S3). It simultaneously provided a direct readout on reaction specificity and hydrolytic stability of the warhead. All measurements were carried out in KPi buffer in the presence of 5% d^6-dmso, which is generally well-tolerated by a wide range of proteins in in vitro studies. N-acetylcysteine methylester (NACME) and L-glutathione (GSH) are useful model cysteine nucleophiles for in vitro studies of electrophilic agents.[32] Mixing reference electrophile 2-methylsulfonylpyrimidine (4q) with NACME or GSH in a 1:10 ratio (pseudo-first-order conditions) allowed extraction of accurate and reproducible second order rate constants (k).
Figure 3 In vitro determination of electrophilic reactivity of compounds. […] All rate constants were calculated as an average of at least two independent measurements. […]
To establish an accurate structure–reactivity profile of 2-SP reagents, we systematically determined their reaction rate constants for the arylation of GSH by NMR, at pH 7.0 and 6.5. […]

OB1OCc2ccccc21 [compound 23, reference compound]
reactivity with GSH (in words): none
